Experimental data as given in PMC2120718.

Test: surface iodination, anti-CD3 epsilon co-immunoprecipitation, SDS-PAGE
Details: glycan lost; control: J76 (wild-type CD3 gamma)

Row | Substance | oligomerisation
1 | CD3 gamma: N30Q | no change
2 | CD3 gamma: N70Q | no change
